Test results published in US12139488B2, “Pyrido[3,2-d]pyrimidine compounds uses thereof for treating a proliferative disease” (Universite de Montreal, priority 2021, dated 2024).

Amino acid sequences for entries named in this document (tags omitted).
UniProt P04049, whole entry: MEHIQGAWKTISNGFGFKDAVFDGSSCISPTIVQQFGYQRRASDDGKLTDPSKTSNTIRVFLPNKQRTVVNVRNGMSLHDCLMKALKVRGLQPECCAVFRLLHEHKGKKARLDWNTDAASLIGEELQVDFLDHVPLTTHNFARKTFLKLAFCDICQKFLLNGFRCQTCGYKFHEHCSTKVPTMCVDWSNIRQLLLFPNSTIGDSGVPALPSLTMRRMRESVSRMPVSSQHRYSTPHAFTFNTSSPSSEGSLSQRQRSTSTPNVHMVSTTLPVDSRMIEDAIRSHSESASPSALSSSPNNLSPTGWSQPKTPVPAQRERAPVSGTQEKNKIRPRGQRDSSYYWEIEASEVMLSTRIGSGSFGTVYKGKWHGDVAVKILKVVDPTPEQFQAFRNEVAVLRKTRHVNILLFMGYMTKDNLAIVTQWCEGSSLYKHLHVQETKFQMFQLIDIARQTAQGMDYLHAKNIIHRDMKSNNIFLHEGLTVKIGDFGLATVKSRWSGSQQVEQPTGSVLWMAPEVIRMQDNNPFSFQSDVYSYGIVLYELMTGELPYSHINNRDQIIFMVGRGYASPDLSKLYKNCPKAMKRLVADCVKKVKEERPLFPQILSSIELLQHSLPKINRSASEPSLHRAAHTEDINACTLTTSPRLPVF
UniProt P15056, whole entry: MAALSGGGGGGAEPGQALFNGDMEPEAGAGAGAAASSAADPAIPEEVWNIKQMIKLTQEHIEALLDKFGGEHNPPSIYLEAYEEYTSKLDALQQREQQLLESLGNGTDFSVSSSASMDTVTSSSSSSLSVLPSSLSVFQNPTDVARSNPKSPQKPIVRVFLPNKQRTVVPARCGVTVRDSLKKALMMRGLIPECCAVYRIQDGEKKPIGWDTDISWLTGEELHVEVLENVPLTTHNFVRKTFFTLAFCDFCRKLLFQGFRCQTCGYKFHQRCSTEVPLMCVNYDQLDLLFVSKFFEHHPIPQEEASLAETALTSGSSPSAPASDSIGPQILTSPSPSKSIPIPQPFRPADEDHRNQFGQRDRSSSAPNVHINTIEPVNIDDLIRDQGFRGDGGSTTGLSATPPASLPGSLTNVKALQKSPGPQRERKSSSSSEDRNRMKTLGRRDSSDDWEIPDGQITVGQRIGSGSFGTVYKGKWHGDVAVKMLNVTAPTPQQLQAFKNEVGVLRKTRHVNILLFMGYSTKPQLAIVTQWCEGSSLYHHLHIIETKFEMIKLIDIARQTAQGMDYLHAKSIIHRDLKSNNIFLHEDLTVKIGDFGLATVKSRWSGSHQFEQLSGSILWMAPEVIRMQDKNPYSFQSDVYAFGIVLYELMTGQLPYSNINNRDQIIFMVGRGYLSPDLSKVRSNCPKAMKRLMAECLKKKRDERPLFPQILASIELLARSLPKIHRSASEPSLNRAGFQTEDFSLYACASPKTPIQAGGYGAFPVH

How the values were obtained:
CRAF = CRAF (Homo sapiens, UniProt P04049); experiment: CRAF kinase activity assay (ADP-Glo)
BRAF = BRAF (Homo sapiens (Human), UniProt P15056); experiment: BRAF kinase activity assay (ADP-Glo)
[1] = test system: pERK in HCT-116 cells (KRAS G13D); experiment: Phospho-ERK inhibition (AlphaLISA SureFire Ultra p-ERK 1/2), HCT116; details: HCT116 cells; for HCT116 pERK Ymin %: Ymin in brackets; for IC50: read-out: HCT116 pERK IC50; for HCT116 pERK % Ymin (lowest value of the IC50 curve): Ymin above −20% = minimal or no paradoxical activation
Outline: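 Cells plated in RPMI-1640 with 5% FBS, kept overnight at 37° C, then treated 1 h with ten-point dilutions (top usually 10 μM; 0.5% DMSO). Lysate p-ERK1/2 (Thr202/Tyr204) read by AlphaLISA SureFire Ultra. % inhibition set against DMSO after subtracting the trametinib background; IC50 from four-parameter fit.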

[2] = read-out: Kinase IC50 (nM) CRAF
[3] = read-out: Kinase IC50 (nM) BRAF
[4] = class symbol before the bracket
[5] = read-out: Kinase IC50 (nM), CRAF biochemical kinase assay, CRAF
[6] = read-out: Kinase IC50 (nM), BRAF biochemical kinase assay, BRAF

SMILES | IC50 (CRAF; [2]) [nM] | IC50 (BRAF; [3]) [nM] | HCT116 pERK Ymin % [1] [%] | IC50 [1, 4] [nM] | IC50 (CRAF; [5]) [nM] | IC50 (BRAF; [6]) [nM] | HCT116 pERK % Ymin (lowest value of the IC50 curve) [1] [%] | IC50 [1] [nM] | other results
CN1CCN(S(=O)(=O)c2cn(-c3ccc4ncnc(Nc5c(F)ccc(NS(=O)(=O)c6ccccc6Cl)c5F)c4n3)c3ccccc23)CC1 | 10 to 50 | < 1 | −10 | < 500 |  |  |  |  | 
CC(C)(O)[C@@H]1CCCN1c1cccc2c1ncn2-c1ccc2ncnc(Nc3c(F)ccc(NS(=O)(=O)c4cccc(Cl)c4Cl)c3F)c2n1 |  |  |  |  | 10 to 50 | 1 to 10 | −6 | < 500 | 
CCN(Cc1ccncc1)C(=O)c1nn(-c2ccc3ncnc(Nc4c(F)ccc(NS(=O)(=O)c5cccc(F)c5C)c4F)c3n2)c2ccccc12 | 10 to 50 | < 1 | −2.4 | < 500 |  |  |  |  | 
CCN(C)C(=O)c1cn(-c2ccc3ncnc(Nc4c(F)ccc(NS(=O)(=O)c5ccccc5Cl)c4F)c3n2)c2ccccc12 | > 50 | < 1 | −10 | 500 to 1000 |  |  |  |  | 
O=S(=O)(Nc1ccc(F)c(Nc2ncnc3ccc(-c4cncnc4)nc23)c1F)c1cccc(Cl)c1Cl |  |  |  |  | 10 to 50 | 1 to 10 | 4 | 500 to 1000 | 
CO[C@H]1CCCN(c2cccc3c2nnn3-c2ccc3ncnc(Nc4c(F)ccc(NS(=O)(=O)c5cccc(Cl)c5Cl)c4F)c3n2)C1 |  |  |  |  | > 50 | > 10 | −3 | < 500 | 
CC(c1cccc2c1ncn2-c1ccc2ncnc(Nc3c(F)ccc(NS(=O)(=O)c4ccccc4Cl)c3F)c2n1)N(C)C (stereo not drawn) |  |  |  |  |  |  |  |  | IC50 (CRAF; read-out: Kinase IC50 (nM) CRAF, tested form: TFA): 10 to 50 nM; IC50 (BRAF; read-out: Kinase IC50 (nM) BRAF, tested form: TFA): 1 to 10 nM; HCT116 pERK Ymin % ([1]; tested form: TFA): −3%; IC50 ([1]; class symbol before the bracket, tested form: TFA): 1000 to 10000 nM
Cc1c(F)cccc1S(=O)(=O)Nc1ccc(F)c(Nc2ncnc3ccc(-n4nc(C(=O)N5CCC[C@H](O)C5)c5ccccc54)nc23)c1F | 10 to 50 | < 1 | −2.2 | < 500 |  |  |  |  | 
C[C@@H]1COC[C@H](C)N1c1cccc2c1ncn2-c1ccc2ncnc(Nc3c(F)ccc(NS(=O)(=O)c4cccc(Cl)c4Cl)c3F)c2n1 (relative stereo) |  |  |  |  | > 50 | 1 to 10 | 0 | < 500 | 
COc1ccc(S(=O)(=O)Nc2ccc(F)c(Nc3ncnc4ccc(-n5cnc6c(N7CCC(O)(C(F)(F)F)CC7)cccc65)nc34)c2F)c(C)c1Cl |  |  |  |  | 10 to 50 | > 10 | −2 | < 500 | 
Cc1c(F)cccc1S(=O)(=O)Nc1ccc(F)c(Nc2ncnc3ccc(-n4nc(C(=O)N(C)C[C@H](O)CO)c5ccccc54)nc23)c1F | 10 to 50 | < 1 | −9.0 | < 500 |  |  |  |  | 
COC1CCCN(c2cccc3c2ncn3-c2ccc3ncnc(Nc4c(F)ccc(NS(=O)(=O)c5cccc(Cl)c5Cl)c4F)c3n2)C1 (single isomer, unassigned) [676] |  |  |  |  | 10 to 50 | 1 to 10 | −4 | < 500 | 
Cc1c(F)cccc1S(=O)(=O)Nc1ccc(F)c(Nc2ncnc3ccc(-n4nc(C(=O)N(C)CCO)c5ccccc54)nc23)c1F | 10 to 50 | < 1 | −6.4 | < 500 |  |  |  |  | 
Cc1c(Cl)cccc1S(=O)(=O)Nc1ccc(F)c(Nc2ncnc3ccc(-n4cnc(C(=O)N5CCN(C)CC5)n4)nc23)c1F | > 50 | 1 to 10 | 7 | 1000 to 10000 |  |  |  |  | 
Cc1c(F)cccc1S(=O)(=O)Nc1ccc(F)c(Nc2ncnc3ccc(-n4nc(C(=O)N5CCNC[C@@H]5C)c5ccccc54)nc23)c1F |  |  |  |  |  |  |  |  | IC50 (CRAF; read-out: Kinase IC50 (nM) CRAF, tested form: formate): > 50 nM; IC50 (BRAF; read-out: Kinase IC50 (nM) BRAF, tested form: formate): 1 to 10 nM; HCT116 pERK Ymin % ([1]; tested form: formate): −13%; IC50 ([1]; class symbol before the bracket, tested form: formate): < 500 nM
O=S(=O)(Nc1ccc(F)c(Nc2ncnc3ccc(-n4cnc5c(N6CCC7(CCOC7)CC6)cccc54)nc23)c1F)c1cccc(Cl)c1Cl |  |  |  |  | 10 to 50 | 1 to 10 | 11 | < 500 | 
Cc1c(Cl)cccc1S(=O)(=O)Nc1ccc(F)c(Nc2ncnc3ccc(-n4cc(C(=O)N5CCOCC5)c5ccccc54)nc23)c1F | 10 to 50 | < 1 | −4.4 | < 500 |  |  |  |  | 
Cn1cnc(-c2ccc3ncnc(Nc4c(F)ccc(NS(=O)(=O)c5cccc(Cl)c5Cl)c4F)c3n2)c1 |  |  |  |  | > 50 | > 10 | 4 | 1000 to 10000 | 

Read-outs that look alike come from different tables or passages of the source.
